The values below come from patent US11098288B2, “D-type amino acid dehydrogenase” (Kureha Corporation, priority 2017, dated 2021).

The series concerns NADP^+. Kind of series: purified protein, by the assay type. The following applies: other: meso-diaminopimelic acid as substrate, 50° C., values for meso-diaminopimelic acid determined using NADP^+ as the coenzyme.

As a reminder, the Km is the concentration of substrate that gives half-maximal velocity. A word on the kcat: it is the maximal rate divided by the concentration of active sites. As usually defined, the kcat/Km is the turnover number divided by the Michaelis constant. “D-type amino acid dehydrogenase derived from T. lipolytica (Thermosyntropha lipolytica DSM 11003)”: the Km was found to be 828 µM, the kcat turned out to be 83 s⁻¹ and the kcat/Km was 100000 M⁻¹ s⁻¹.
